{"sequences": {"note": "Chains of the proteins cited; added tags and fusions are not shown. Lines headed by an entry give the natural chain unless they say otherwise; changes in a name come on top.", "UniProt P35372, whole entry": "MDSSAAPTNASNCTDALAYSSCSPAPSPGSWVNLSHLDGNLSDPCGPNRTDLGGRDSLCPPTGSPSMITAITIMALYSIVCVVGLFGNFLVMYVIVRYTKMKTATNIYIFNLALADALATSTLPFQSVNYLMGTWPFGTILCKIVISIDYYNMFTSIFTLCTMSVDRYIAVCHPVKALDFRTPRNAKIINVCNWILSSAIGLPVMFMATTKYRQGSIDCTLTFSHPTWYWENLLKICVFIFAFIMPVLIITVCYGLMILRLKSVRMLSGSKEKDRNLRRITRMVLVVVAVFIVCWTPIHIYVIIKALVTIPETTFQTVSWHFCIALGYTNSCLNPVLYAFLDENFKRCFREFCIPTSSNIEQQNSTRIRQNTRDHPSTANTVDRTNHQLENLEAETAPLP", "UniProt P41145": "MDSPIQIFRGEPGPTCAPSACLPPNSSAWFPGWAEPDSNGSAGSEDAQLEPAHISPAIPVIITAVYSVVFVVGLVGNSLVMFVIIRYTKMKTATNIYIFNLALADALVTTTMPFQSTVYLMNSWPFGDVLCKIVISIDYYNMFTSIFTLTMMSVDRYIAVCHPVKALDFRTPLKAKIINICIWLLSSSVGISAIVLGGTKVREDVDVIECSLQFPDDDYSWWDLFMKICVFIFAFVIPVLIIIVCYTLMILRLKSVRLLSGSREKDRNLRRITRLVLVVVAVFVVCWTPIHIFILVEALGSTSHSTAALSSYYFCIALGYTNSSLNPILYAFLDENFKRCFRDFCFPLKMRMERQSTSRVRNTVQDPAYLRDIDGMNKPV"}, "source": "paper PMC3392217", "about": "“BmK-YA, an Enkephalin-Like Peptide in Scorpion Venom” (PLoS ONE, 2012)", "format_in_all_cases": "cell-based", "key": {"human opioid receptor μ": {"target": "T1, human opioid receptor μ (Homo sapiens, UniProt P35372)", "T1 construct": "expressed in transfected cells", "test": "Ca2+ response monitored by FLIPR, μ-expressing cells", "conditions": "μ-expressing HEK293T cells, Gqαi3 cotransfected, Fluo-4 AM, mean±SE, n = 3, read-out: EC50 (intracellular Ca2+ mobilization)"}, "human opioid receptor κ": {"target": "T2, human opioid receptor κ (Homo sapiens, UniProt P41145)", "T2 construct": "expressed in transfected cells", "test": "Ca2+ response monitored by FLIPR, κ-expressing cells", "conditions": "κ-expressing HEK293T cells, Gqαi3 cotransfected, Fluo-4 AM, mean±SE, n = 3, read-out: EC50 (intracellular Ca2+ mobilization)"}, "human opioid receptor δ": {"target": "human opioid receptor δ (Homo sapiens, UniProt P41143)", "test": "Ca2+ response monitored by FLIPR, δ-expressing cells", "design": "expressed in transfected cells", "conditions": "δ-expressing HEK293T cells, Gqαi3 cotransfected, Fluo-4 AM, mean±SE, n = 3, read-out: EC50 (intracellular Ca2+ mobilization)"}}, "data": [{"smiles": "CSCC[C@H](NC(=O)[C@H](Cc1ccccc1)NC(=O)CNC(=O)CNC(=O)[C@@H](N)Cc1ccc(O)cc1)C(=O)N[C@@H](CC(N)=O)C(=O)N1CCC[C@H]1C(=O)N[C@@H](C)C(=O)O", "note": "[Phe^4-BmK-YA]", "values": [{"measurement": "EC50", "setting": "human opioid receptor μ", "result": 157, "unit": "nM"}, {"measurement": "EC50", "setting": "human opioid receptor κ", "result": 77, "unit": "nM"}, {"measurement": "EC50", "setting": "human opioid receptor δ", "result": 60, "unit": "nM"}]}]}
